# Apparent affinities of Ab-14 variants for a coronavirus HR2 peptide

The target is the same throughout: PDVDLGDISGINAS, from the HR2 region of SARS-CoV-2 spike.

Ab-14 is the parent antibody, in scFv form: VH, then a 15-residue (Gly4Ser)3 linker, then VL. The heavy chain is unchanged in all variants.
VH: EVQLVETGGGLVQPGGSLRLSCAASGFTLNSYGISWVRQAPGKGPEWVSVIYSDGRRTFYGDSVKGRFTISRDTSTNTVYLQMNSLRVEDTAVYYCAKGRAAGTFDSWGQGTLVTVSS
VL: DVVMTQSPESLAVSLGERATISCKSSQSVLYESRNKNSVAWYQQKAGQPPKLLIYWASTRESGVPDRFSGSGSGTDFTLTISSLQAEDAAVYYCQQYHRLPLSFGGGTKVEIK

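In library AAYL50, one, two or three CDR residues were substituted; doubles and triples were drawn at random. In AlphaSeq, yeast of one mating type display the scFv and yeast of the other type display the target. Pairs that bind mate more often; barcode pairs of the diploids are counted by sequencing. The ratio of observed to expected reads was calibrated, replicate by replicate, on BCL2-family standards whose Kd was known from biolayer interferometry. Each pool was mated in three replicate cultures.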

Variants are written as CDR1, CDR2 and CDR3 of the light chain (limits as in the source). Parent: KSSQSVLYESRNKNSVA, WASTRES, QQYHRLPLS. All variants listed here change R60 of the VL, counted from its first residue. Kd is apparent (estimated from mating counts) and averaged on the log scale over replicates with a signal. Smaller is tighter. Where no diploid with the target was found in any replicate, the entry reads "no signal": below detection, most likely a poor binder, though not proof of it. In this assay the parent's reference entry averaged 4.4 nM; its copy inside this library read 48 nM. Nonspecific signal, from three strains lacking the peptide, appeared in 18% of pairings of library AAYL50, centred on 15 µM (5% of these signals below 970 nM); values are not corrected for it. For each scFv, signals with the empty controls are counted beside the result.

CDR-L1	CDR-L2	CDR-L3	Kd (apparent)	detected	empty controls
KSSQSVLYESRNKNSFA	WASTCES	QQYTRLPLS	no signal	0 of 3	1 of 9
KSEQSVLYESRNKNSVH	WASTHES	QQYHRLPLS	no signal	0 of 3	2 of 9
KSSQSVLYLSRNKNSVA	WAMTAES	QQYHRLPLS	no signal	0 of 3	3 of 9
KSSQSVLYESRNKNSVA	WAGTDES	QQYHRLPLS	no signal	0 of 3	4 of 9
KSSQSVLYESRNKNSVA	WASTIES	QQYHRLPLS	no signal	0 of 3	0 of 9
KSSQSVLYESRNKNSVA	WASTNES	QQYCRLPLS	6.2 µM	2 of 3	0 of 9
KSSQSVLYESRNKNSVR	WASTNED	QQYHRLPLS	620 µM	1 of 3	1 of 9
KVSQGVLYESRNKNSVA	WASTTES	QQYHRLPLS	15 nM	3 of 3	1 of 9
KSSQSVLYESRNKNSVA	RASTQES	QQNHRLPLS	38 µM	1 of 3	1 of 9
KSSQSVLYESRNKNSVA	WASTAES	QQYHRLTLS	10 µM	2 of 3	1 of 9
KSSQSVLYESRGKNAVA	WASTKES	QQYHRLPLS	80 nM	2 of 3	0 of 9
KSSQSHLYESRNKNSVA	WASTLES	QQYNRLPLS	no signal	0 of 3	0 of 9
KSSQSVLYESRNKNSVA	WASLFES	QPYHRLPLS	35 µM	2 of 3	3 of 9
KSSQSVLYESRNKYSVA	WNSTFES	QQYHRLPLS	no signal	0 of 3	1 of 9
KSSQSVLYESRNKNSVA	SGSTHES	QQYHRLPLS	4.1 nM	3 of 3	3 of 9
KSSQSVLYESRNKNSVA	WASTLEW	QTYHRLPLS	290 nM	3 of 3	5 of 9
KSSQSVLYESRNKNSVA	WASNHES	QDYHRLPLS	no signal	0 of 3	0 of 9
GSSQSVLYESRHKNSVA	WASTMES	QQYHRLPLS	no signal	0 of 3	0 of 9
KSSQSVLYESRNKNSVC	WASEFES	QQYHRLPLS	660 nM	1 of 3	0 of 9
KSSQSVAYELRNKNSVA	WASTIES	QQYHRLPLS	10 µM	2 of 3	3 of 9
KSSQSVLYESANKNSVA	WASTDES	QQYFRLPLS	110 µM	2 of 3	3 of 9
KSSQSDLYTSRNKNSVA	WASTSES	QQYHRLPLS	6.6 µM	3 of 3	5 of 9
KSSYAVLYESRNKNSVA	WASTAES	QQYHRLPLS	2.0 µM	1 of 3	0 of 9
KSSQSVLYESRNQNKVA	WASTVES	QQYHRLPLS	no signal	0 of 3	1 of 9
KSSQSVLYESRPKNSVA	WASTAES	QQYHRLPPS	no signal	0 of 3	0 of 9
KSSQSVLYESRNKNSVA	WTMTEES	QQYHRLPLS	600 µM	1 of 3	4 of 9
KSSQRVLYESRNKNSVA	WASTGES	QQYHRLPLS	32 µM	3 of 3	5 of 9
KSSQSVLYESRNKNLVA	WASTFES	QRYHRLPLS	no signal	0 of 3	2 of 9
KSSQSVLYESRNKNSVA	WASTFEQ	QQYHRLPQS	no signal	0 of 3	0 of 9
KSSQSVLYESRNKNSVL	WASTTES	QQYHRNPLS	8.5 µM	1 of 3	1 of 9
KSSQSVLYESRNKNSFA	WASTTES	QSYHRLPLS	no signal	0 of 3	1 of 9
KSSQSVLYESRNKNSVA	WASHTES	QQYGRLPLS	17 µM	2 of 3	1 of 9
KSSQSVLYESRNKNSVA	WESTAER	QQYHRLPLS	no signal	0 of 3	0 of 9
KSSQSPLYESRNKNSVA	WASTAES	QQFHRLPLS	no signal	0 of 3	0 of 9
KSSQSVCYESRNKNSVA	WASHQES	QQYHRLPLS	no signal	0 of 3	1 of 9
KSSQSVLYKSRNKNSVA	WASTGES	QQYWRLPLS	no signal	0 of 3	1 of 9
KSSQSVLYESRNKTSVA	WASTNES	QQYHRLRLS	140 µM	2 of 3	4 of 9
KSSQSVLYESRNVNSVA	WVSTEES	QQYHRLPLS	2.4 µM	1 of 3	1 of 9
KSSQSVLIESRNKNSVA	WASTWES	QQRHRLPLS	no signal	0 of 3	0 of 9
KSSQSVLYESRNKNSVA	WASTQES	QQYHRLPLS	3.1 µM	3 of 3	3 of 9
KSSQSQLYESRNKNSVA	WASTIEE	QQYHRLPLS	84 nM	3 of 3	1 of 9
KCSQSVLYESRNKNSVA	WASTHES	KQYHRLPLS	5.5 µM	1 of 3	3 of 9
KSSQSVLYESRNKNACA	WASTKES	QQYHRLPLS	34 µM	1 of 3	0 of 9
KSSQSVYYEARNKNSVA	WASTFES	QQYHRLPLS	70 µM	1 of 3	0 of 9
KSSQSVLYASRNKNSVA	WASTVES	QIYHRLPLS	1.2 µM	3 of 3	4 of 9
KSSQSVLYESRNKNSVD	WASTEES	QQYHRGPLS	no signal	0 of 3	0 of 9
KSSQFILYESRNKNSVA	WASTMES	QQYHRLPLS	3.8 µM	1 of 3	0 of 9
KSSQSVLYEWRNKNSVA	WASTDES	QQYHKLPLS	no signal	0 of 3	2 of 9
KSSQFVLYESRNKNSVA	WASTEES	QQYHRLPLS	no signal	0 of 3	0 of 9
RSSQSVLYESRNKNSVA	TASTMES	QQYHRLPLS	4.9 µM	1 of 3	1 of 9
KSSQSVLYESRNKNSVA	WTSTSES	QQYHRTPLS	no signal	0 of 3	1 of 9
DSSQSVFYESRNKNSVA	WASTGES	QQYHRLPLS	76 nM	3 of 3	0 of 9
KSSTSVLYESENKNSVA	WASTKES	QQYHRLPLS	5.8 nM	3 of 3	1 of 9
KSSQSVLYESRNKNSVA	WASTHES	QQYHRLPLS	no signal	0 of 3	0 of 9
KSSQSVLYESRNKNSVS	WASTSES	QEYHRLPLS	no signal	0 of 3	1 of 9
KSSQSVLYNSRNKNSVA	WASTWES	FQYHRLPLS	no signal	0 of 3	0 of 9
KSSQSVLYESRNKNFVA	WASTIES	QQYARLPLS	2.1 µM	1 of 3	2 of 9
KSSQSVLYESRYKNSVA	WASTFES	QQYHRLPLS	no signal	0 of 3	1 of 9

8 of these entries, quoted again:

| CDR-L1 | CDR-L2 | CDR-L3 | Kd (apparent) | detected | empty controls |
|---|---|---|---|---|---|
| KSSQSVLYASRNKNSVA | WASTVES | QIYHRLPLS | 1.2 µM | 3 of 3 | 4 of 9 |
| KSSQSVLYEWRNKNSVA | WASTDES | QQYHKLPLS | no signal | 0 of 3 | 2 of 9 |
| KSSQSVLYESRNKYSVA | WNSTFES | QQYHRLPLS | no signal | 0 of 3 | 1 of 9 |
| KSSQSVLIESRNKNSVA | WASTWES | QQRHRLPLS | no signal | 0 of 3 | 0 of 9 |
| KSSQSQLYESRNKNSVA | WASTIEE | QQYHRLPLS | 84 nM | 3 of 3 | 1 of 9 |
| KSSQSVLYESRNKNSFA | WASTCES | QQYTRLPLS | no signal | 0 of 3 | 1 of 9 |
| KSSQSVLYESRNKTSVA | WASTNES | QQYHRLRLS | 140 µM | 2 of 3 | 4 of 9 |
| KSSQSVLYESRNKNSVL | WASTTES | QQYHRNPLS | 8.5 µM | 1 of 3 | 1 of 9 |

Values reported by Engelhart et al. 2022, doi:10.1038/s41597-022-01779-4 (FLAb copy).